{
  "source": "ChEMBL document CHEMBL1154855",
  "about": "(Eur J Med Chem, 2010)",
  "test_system": "Human immunodeficiency virus 2",
  "experiment": "Antiviral activity against HIV2 ROD infected in human MT4 cells assessed as protection from virus-induced cytopathogenicity after 5 days by MTT assay",
  "format": "functional, organism-based",
  "details": "Human immunodeficiency virus 2, ISOLATE ROD, MT4, 120 h",
  "method_in_brief": "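MT-4 cells at 3 × 10^4 per well were infected with HIV (IIIB or ROD) at 50% cell culture infective doses. Graded compound concentrations were added immediately after infection. Plates were incubated for 5 days at 37 °C and viable cells were counted by MTT.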",
  "data": [
    {"smiles": "COc1cc(/C=C/C(=O)CC(=O)/C=C/c2ccc(O)c(OC)c2)ccc1O", "note": "[CURCUMIN]", "values": [
      {"measurement": "IC50", "result": 37, "unit": "nM"}
    ]}
  ]
}
